Molecular target: Urokinase-type plasminogen activator (Homo sapiens, UniProt P00749)
Assay: In vitro inhibitory activity against Urokinase-type plasminogen activator (microPa)

## COc1ccc(N2CCN(c3nc(-c4cc(C(=N)N)sc4SC)cs3)CC2)cc1
  Ki: 480 nM
